From article PMC8378340 (ACS Chemical Neuroscience, 2021)

Test: Analytical RP-HPLC retention time as measure of hydrophobicity
Format: physicochemical
Conditions: same RP-HPLC conditions; effect of Swedish mutation, increased hydrophobicity

longer retention time (tR) compared to the mutation-free APP-Y1 peptide 5: 0.6 min
Substance: IKTEEISEVNL∼DAEFRHDSGYEVHHQK∼LVFFAED [APP-Y2 (7)]
